Results reported in ChEMBL document CHEMBL1149228, “Analysis of structure-activity relationships for the 'B-region' of N-(3-acyloxy-2-benzylpropyl)-N(')-[4-(methylsulfonylamino)benzyl]thiourea analogues as vanilloid receptor antagonists: discovery of an N-hydroxythiourea analogue with potent analgesic activity” (Bioorg Med Chem Lett, 2004).

Sequences of proteins named here, by UniProt entry; tags and fusion partners are left off.
UniProt O35433, whole entry: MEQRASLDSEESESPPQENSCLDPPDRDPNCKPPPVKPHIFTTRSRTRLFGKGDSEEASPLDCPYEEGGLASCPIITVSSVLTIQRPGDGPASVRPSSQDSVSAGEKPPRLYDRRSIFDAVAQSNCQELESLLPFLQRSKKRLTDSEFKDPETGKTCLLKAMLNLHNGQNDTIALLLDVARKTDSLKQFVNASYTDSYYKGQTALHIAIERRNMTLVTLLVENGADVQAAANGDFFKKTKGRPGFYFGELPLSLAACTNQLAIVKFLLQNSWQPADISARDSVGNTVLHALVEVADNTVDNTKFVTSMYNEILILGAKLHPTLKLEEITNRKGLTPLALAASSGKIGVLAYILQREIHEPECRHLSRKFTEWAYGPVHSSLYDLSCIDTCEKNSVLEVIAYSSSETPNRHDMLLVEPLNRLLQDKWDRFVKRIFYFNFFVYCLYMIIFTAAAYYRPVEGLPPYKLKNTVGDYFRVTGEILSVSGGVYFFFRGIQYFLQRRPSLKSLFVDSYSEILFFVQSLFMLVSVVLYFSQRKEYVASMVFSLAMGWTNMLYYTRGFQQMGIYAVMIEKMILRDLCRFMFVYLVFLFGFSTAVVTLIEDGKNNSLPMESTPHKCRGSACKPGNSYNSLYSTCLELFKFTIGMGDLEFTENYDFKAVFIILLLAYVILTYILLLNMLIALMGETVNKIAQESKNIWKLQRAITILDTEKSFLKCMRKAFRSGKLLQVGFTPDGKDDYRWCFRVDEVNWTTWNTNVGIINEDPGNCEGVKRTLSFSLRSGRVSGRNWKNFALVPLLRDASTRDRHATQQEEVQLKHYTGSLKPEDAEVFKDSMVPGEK

Target: Transient receptor potential cation channel subfamily V member 1 (Rattus norvegicus) (UniProt O35433)
Test: Agonist-induced 45 [Ca2+] influx relative to 300 nM capsaicin in vanilloid receptor expressing CHO cells

Work on `Cc1ccc(CC(COC(=O)C(C)(C)C)CN(O)/C(S)=N/Cc2ccc(NS(C)(=O)=O)cc2F)cc1C` (centres undefined) yielded an agonist efficacy of 20%.

Work on `Cc1ccc(CC(CNC(=S)N(O)Cc2ccc(NS(C)(=O)=O)c(F)c2)COC(=O)C(C)(C)C)cc1C` (centres undefined) yielded an agonist efficacy of 24%.

For `COc1cc(CC(=O)NCC(COC(=O)C(C)(C)C)Cc2ccc(C)c(C)c2)ccc1NS(C)(=O)=O` (centres undefined), the agonist efficacy was 40%.

`COc1cc(CO/C(S)=N/CC(COC(=O)C(C)(C)C)Cc2ccc(C)c(C)c2)ccc1NS(C)(=O)=O` (centres undefined) was tested, and the agonist efficacy was 50%.
